In patent publication US12429487B2, “Neurofilament protein for guiding therapeutic intervention in amyotrophic lateral sclerosis” (Biogen MA Inc., priority 2018, dated 2025):

System: ALS patient
Experiment: Prophetic example: switching therapeutics in an ALS patient
Format: in vivo, human
Conditions: after 3 months of treatment, vs initial level
Experimental: The patient's serum neurofilament protein level is measured and is determined to be at a level which will be called the initial level. The patient's physician will ask the patient to take an ALSFRS-R assessment every six months. […] The physician will then advise the patient to switch to another therapeutic (e.g., edarovone that may be efficacious to that patient) prior to the patient taking their six month ALSFRS-R test.

Compound: Nc1nc2ccc(OC(F)(F)F)cc2s1 [riluzole]
- serum neurofilament protein level: higher than the initial level
